Assay results as given in patent publication US10160812B2, “Bispecific HER2 antibodies” (MedImmune, LLC, priority 2014, dated 2018).

Key:
[1] = test system: NCI-N87 cells with acquired resistance to T-DM1; conditions: T-DM1 resistant NCI-N87 cell line, FIG. 26A right panel
Procedure: (§1) A panel of human cancer cell lines expressing various levels of HER2 was used to evaluate the cytotoxic activity of bispecific ADC (Table 5 in Example 1). Briefly, cells were harvested, resuspended, and plated in serum-containing culture media at a density of 5,000 to 20,000 per well (depending on the growth kinetics of each cell line) of 96-well plates in a volume of 100 μL. A 2× concentration of each dose of antibody or ADC to be tested was prepared by diluting the test articles in culture medium. One hundred microliters of each test article was added to cells in triplicate such that the final dose curve ranged from 5 nM down to 0.08 pM in a stepwise 1:4 serial dilution series. The treated cells were incubated at 37° C./5% CO2 for 3 to 4 days, depending on the growth kinetics of each particular cell line. Cell viability was determined using Cell Titer Glo according to manufacturer's instructions. Data are analyzed by the GraphPad Prism software and presented as percent growth inhibition relative to the untreated control. EC50 values were determined using Sigmoidal non-linear regression analysis with GraphPad Prism software and were summarized in Table 6.

NCI-N87 = conditions: parental NCI-N87 cells, FIG. 26A left panel
Procedure: as §1

JIMT-1 = assay: In vitro cytotoxic activity (Cell Titer Glo); assay type: cell-based, human; conditions: JIMT-1 cells, FIG. 18
ZR-75-1 = assay: In vitro cytotoxic activity (Cell Titer Glo); assay type: cell-based, human; conditions: ZR-75-1 cells, FIG. 19

T-DM1 [reference compound]
cytotoxic activity (in words) [1]: lost the activity
cytotoxic activity (in words) (NCI-N87): active
cytotoxic activity (in words) (JIMT-1): no activity
cytotoxic activity (in words) (ZR-75-1): no or limited cytotoxic activity
